This assay addresses purified recombinant human LDHA protein (Homo sapiens, UniProt P00338). Description: Lactate dehydrogenase A (LDHA) inhibitory assay. In kind it is biochemical.

Structures are written as SMILES.

A word on the inhibition: it is the drop in the measured response relative to a control, in per cent. For orientation: IC50 means the midpoint of a concentration-inhibition curve. In the case of `NC(=O)C(=O)O` [Sodium oxamate, reference compound], the inhibition at 111 µg/mL (at 0.111 mg/mL (1 mM), read-out: LDHA mean % inhibition ± SD) amounted to 100%. Moreover, the IC50 (mean ± SD of three replicates) was 141 µM.

The values are drawn from publication PMC10610505, “Synthesis and Biological Evaluation of Some New 3-Aryl-2-thioxo-2,3-dihydroquinazolin-4(1H)-ones and 3-Aryl-2-(benzylthio)quinazolin-4(3H)-ones as Antioxidants; COX-2, LDHA, α-Glucosidase and α-Amylase Inhibitors; and Anti-Colon Carcinoma and Apoptosis-Inducing Agents” (Pharmaceuticals, 2023).
